Target: G protein-coupled receptor kinase 5 (Homo sapiens, UniProt P34947)
Test: Assays for Inhibition of GRKs: GRK1, 2 and 5 kinetic assays were conducted in a buffer containing 20 mM HEPES pH 7.0, 5 μM ATP, 2 mM MgCl2, and […] DDM with 50 nM GRK and either 500 nM bROS or 500 nM soluble substrate tubulin in 5 min reactions. The low salt concentration and DDM were used to maximize GRK activity and disrupt small molecule aggregates from forming, respectively. Reactions were

Protein sequences, listed by entry. Tags and fused reporters are not part of them.
UniProt P34947, whole entry: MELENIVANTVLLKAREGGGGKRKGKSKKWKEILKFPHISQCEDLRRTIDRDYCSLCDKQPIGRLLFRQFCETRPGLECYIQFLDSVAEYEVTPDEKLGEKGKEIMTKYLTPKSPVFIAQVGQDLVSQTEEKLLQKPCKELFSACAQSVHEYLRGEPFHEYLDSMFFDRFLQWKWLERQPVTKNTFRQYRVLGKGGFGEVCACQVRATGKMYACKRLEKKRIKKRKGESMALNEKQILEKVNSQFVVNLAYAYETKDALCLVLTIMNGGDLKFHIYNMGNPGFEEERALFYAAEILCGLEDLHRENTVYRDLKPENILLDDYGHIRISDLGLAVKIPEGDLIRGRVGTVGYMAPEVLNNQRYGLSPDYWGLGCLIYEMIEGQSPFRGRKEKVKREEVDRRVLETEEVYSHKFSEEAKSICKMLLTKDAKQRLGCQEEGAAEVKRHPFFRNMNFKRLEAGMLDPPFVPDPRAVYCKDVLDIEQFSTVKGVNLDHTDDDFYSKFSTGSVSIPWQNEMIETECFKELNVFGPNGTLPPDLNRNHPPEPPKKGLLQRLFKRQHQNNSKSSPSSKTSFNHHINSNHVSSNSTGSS

`COc1ccccc1C(C)NC(=O)c1cc(C2NC(=O)NC(C)=C2C(=O)Nc2ccc3[nH]ncc3c2)ccc1F` (stereo unspecified) gave an IC50 of 2.4 µM.

Source: ChEMBL document CHEMBL5725686, “G protein-coupled receptor kinase 2 inhibitors and methods for use of the same” (2018)
